Laboratory results published in patent publication US5385833A, “Pseudomonas sp. ATCC No. 49794 alcohol dehydrogenase” (The Scripps Research Institute, priority 1992, dated 1995).
Only a part of the results on these compounds is given; other tests are left out.

Tested on: Pseudomonas sp. strain PED alcohol dehydrogenase
Assay: PED alcohol dehydrogenase enzyme assay, reduction of carbonyl substrates (relative rates)
Format: biochemical
Details: Table 2; determined as described in Table 1 (10 mM ketone, 0.45 mM NADH, 340 nm)

Compound `O=C1CCN(Cc2ccccc2)CC1` has a Relative rate of 6.
